Data on one compound can be found in patent publication US10351576B2, “Fused tricyclic pyrazole derivatives useful for farnesoid X receptors” (NOVARTIS AG, priority 2015, dated 2019).

Amino acid sequences for entries named in this document (tags omitted). Residues count along the entry.
UniProt Q96RI1, 193-472 isoform 2 limits assumed: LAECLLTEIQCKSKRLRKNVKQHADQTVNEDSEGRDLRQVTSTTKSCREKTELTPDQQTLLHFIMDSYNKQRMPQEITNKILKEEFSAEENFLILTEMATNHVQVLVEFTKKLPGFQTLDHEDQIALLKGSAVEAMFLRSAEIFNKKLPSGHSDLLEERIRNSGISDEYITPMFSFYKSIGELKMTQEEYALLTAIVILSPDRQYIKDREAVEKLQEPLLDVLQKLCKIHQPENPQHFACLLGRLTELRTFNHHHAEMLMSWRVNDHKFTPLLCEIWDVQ

For the assay, the target named is human Farnesoid X Receptor (FXR) ligand binding domain (GST-FXR LBD) (Homo sapiens, UniProt Q96RI1). Put plainly: Human GST-FXR LBD co-activator interaction assay (FXR HTRF assay). The assay is classed as biochemical. The conditions noted are these: read-out: FXR coactivator interaction assay (HTRF), ligand-dependent interaction of GST-FXR LBD with biotin-labeled SRC-1 peptide, response relative to GW4064. Background: In TR-FRET formats the signal depends on donor and acceptor labels being close together.

As to `Cn1nc(C(=O)N(CC(=O)Nc2cccc(S(N)(=O)=O)c2)Cc2ccccc2F)c2c1-c1cc(Cl)ccc1OC2`, the EC50 turned out to be 72 nM.
